Values of other authors as cited in patent EP4154876B1, “CBX7 INHIBITOR FOR USE IN THE TREATMENT AND/OR PREVENTION OF A BLOOD VESSEL DISORDER” (Universität Potsdam, priority 2021, dated 2023).

Target: T1, chromodomains of CBX4 (Homo sapiens, UniProt O00257)
T1 sequence (O00257 11-69 limits assumed): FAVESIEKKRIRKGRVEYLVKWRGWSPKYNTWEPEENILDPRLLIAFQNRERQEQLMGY
Conditions: CBX4 chromodomain; cited from earlier work

CCN(CC)CCCC[C@H](NC(=O)[C@H](CC(C)C)NC(=O)[C@H](C)NC(=O)[C@H](Cc1ccccc1)NC(=O)c1ccc(C(C)(C)C)cc1)C(=O)N[C@@H](CO)C(=O)OC [UNC3866]
Kd: ~100 nM
